# Yeast mating assay 2: variants of the scFv Ab-95

Source: Engelhart et al. 2022 (doi:10.1038/s41597-022-01779-4), MIT Lincoln Laboratory and A-Alpha Bio; data file from the FLAb repository.

The target is the same throughout: PDVDLGDISGINAS, from the HR2 region of SARS-CoV-2 spike.

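The parent was found by panning a naive human phage display library on the peptide. Library AAYL52 holds single substitutions and randomly drawn double and triple substitutions in the CDRs. Affinity was read by AlphaSeq, a pooled yeast mating assay with surface-displayed partners. Pairs that bind mate more often; barcode pairs of the diploids are counted by sequencing. Read counts were normalised to the haploid input and turned into Kd by a linear fit to BCL2-family pairs of known affinity, for each replicate. Mating was done three times.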

Parent: Ab-95, a human scFv built as VH, a 15-residue (Gly4Ser)3 linker, VL. Only the CDRs of the light chain vary.
VH: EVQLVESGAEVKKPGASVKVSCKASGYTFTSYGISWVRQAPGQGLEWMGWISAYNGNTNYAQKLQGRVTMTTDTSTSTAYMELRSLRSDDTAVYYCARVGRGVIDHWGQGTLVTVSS
VL: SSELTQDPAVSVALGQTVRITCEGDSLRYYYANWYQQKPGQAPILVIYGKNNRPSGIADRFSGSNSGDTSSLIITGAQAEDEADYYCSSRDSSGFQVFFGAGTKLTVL

Variants are written as CDR1, CDR2 and CDR3 of the light chain (limits as in the source). Parent: EGDSLRYYYAN, GKNNRPS, SSRDSSGFQVF.
Scale: log10 of Kd in nM, estimated from mating counts; low values are strong binders.
A pair that was not seen in that replicate is written "nd"; this usually means weak binding, but a binder can also be missed.
Parent in this assay: reference entry 2.31, copy in this library 2.25.

CDR-L1	CDR-L2	CDR-L3	log10 Kd, replicates	empty controls
EGDSLRIYYAN	GKNNRPS	SSRDSSGFWDF	nd nd nd	2 of 9 (3.24)
EGDSLRYYYAN	GKNNRPS	CSRDSAGFQVF	3.01 3.28 2.60	2 of 9 (2.72)
EGDSLRYYMAN	GQNNRWS	SSRDSSGFQVF	2.19 2.01 2.30	1 of 9 (3.75)
EGDSSRYYYAN	GKNHRPS	SSSDSSGFQVF	3.84 5.17 2.68	5 of 9 (3.80)
EGDSLWYYYAN	GKNNRPS	SSRDDSGKQVF	4.23 3.95 nd	2 of 9 (4.14)
EEDSLRYYYAN	GKNARPS	VSRDSSGFQVF	nd nd nd	0 of 9
EGDSLQYYYAN	GKNNRPS	SSRMSSGFWVF	3.23 2.73 3.21	2 of 9 (3.57)
EGDSLRYYYAN	GKNNLPS	TSRDSSLFQVF	nd nd nd	1 of 9 (4.78)
IGDSLRYYYAN	GKNNRFS	QSRDSSGFQVF	2.59 2.43 3.04	4 of 9 (3.60)
EGDSLRYYYAN	GKNNRPS	FSRDKSGFQVY	2.80 2.79 2.86	4 of 9 (3.92)
EGDSLRYYYAN	GKNNRPS	SSRDSQMFQVH	3.58 3.23 nd	3 of 9 (3.99)
EDDSLRYYYAN	GKNNRPS	NSRDSSGFQVN	1.58 2.02 1.10	2 of 9 (3.95)
EGDSLRYYTAN	GKNNRLA	SSRDSSGFQVF	3.81 3.29 2.76	2 of 9 (3.37)
EGDSQRSVYAN	GKNNRPS	SSRDSSGFQVF	2.59 2.93 2.43	4 of 9 (4.20)
EYDSLRIYYAN	GKNNRPS	SSRDSSMFQVF	3.59 nd nd	6 of 9 (3.64)
EGDSLRYYYCN	GKNNRPS	MSRDSSGFQVF	1.80 1.74 1.38	4 of 9 (4.23)
EGDSLRYDYAN	GTNNRPS	SSRDSSDFQVF	nd nd nd	2 of 9 (4.22)
EGDDLRYYYAN	EKNNRPS	SSRDSAGFQVF	3.68 2.91 nd	3 of 9 (3.58)
EGDSRRYYYAN	GKNNRNS	SSRDSSGGQVF	nd nd nd	1 of 9 (2.95)
EGDSLRYYYAN	ANNNRPS	SSRDSSGFDVF	3.49 nd 3.36	3 of 9 (4.88)
EGDSVRDYYAN	GKNNRPC	SSRDSSGFQVF	3.86 3.38 2.97	1 of 9 (3.39)
EGDSLRYYQAN	GKNIRPS	SSRDSGGFQVF	1.25 1.17 0.48	2 of 9 (5.01)
EGDSLRYYYRN	GKNNRPS	SSLDSSGFCVF	4.57 nd 3.95	0 of 9
EGDSLDYKYAN	GKNNRLS	SSRDSSGFQVF	3.58 2.82 3.66	6 of 9 (3.57)
EGDSERYYYAN	GVNNRPS	SNRDSSGFQVF	nd nd nd	1 of 9 (3.25)
EWDSLRYYYAN	GKNCRPS	SSRDGSGFQVF	nd 5.12 nd	1 of 9 (4.35)
EGDSLRYYYAN	GKNNRPS	SHRDSNGFDVF	2.62 2.25 1.98	4 of 9 (3.98)
FGDSLRYYYAN	GKNNRPS	SSRRSSGFNVF	3.41 3.26 nd	3 of 9 (3.84)
EGGSFRYYYAN	GKNNRPS	SSRDISGFQVF	4.17 3.65 nd	4 of 9 (3.96)
EGDSLRYYYAN	VKNNNPS	SGRDSSGFQVF	2.89 nd nd	1 of 9 (4.01)
EGDSDRYYYLN	GKNNRPS	SSRDSSGFKVF	3.12 3.12 4.11	5 of 9 (4.15)
EGDSLTYYYAN	GKNNRPG	KSRDSSGFQVF	2.53 4.24 1.91	2 of 9 (3.50)
MGDSLRYYYAD	GKNNRPS	SSRDSSGFQVE	nd nd nd	1 of 9 (4.00)
ENDSLRYYYAN	GKNNRWS	YSRDSSGFQVF	4.89 4.43 4.83	2 of 9 (4.90)
EGDVLRYYYAN	GKNNRPS	SSRDSSGFQVF	2.93 4.42 2.51	2 of 9 (3.52)
EGDMLRYYYAN	CKNNRPS	SSRCSSGFQVF	4.23 nd nd	3 of 9 (3.75)
EGDSLRYYYAN	GKNNRHS	SSADTSGFQVF	nd nd nd	1 of 9 (4.56)
EGDSLRYYYAH	GKNWRPS	SSRDSSGFQKF	nd nd nd	3 of 9 (4.28)
EGDSLRYYYSN	GASNRPS	SSRDSSGFQVF	2.41 2.41 2.31	3 of 9 (4.17)
EGDLLRYQYAN	GHNNRPS	SSRDSSGFQVF	2.59 2.39 2.45	5 of 9 (3.77)
EGDSLRYYYAN	GKNNRPS	SSRDSSTFQEH	3.24 nd nd	3 of 9 (3.26)
WGDSLRYYYAN	GKNNDPS	SSRDSSGFQMF	3.27 nd nd	2 of 9 (3.74)
EGDSLRYYYAN	TGLNRPS	SSRDSSGFQVF	3.48 3.60 4.06	4 of 9 (3.29)
EGDSLIYYYAN	EKNNRPW	SSRDSSGFQVF	3.05 3.63 nd	0 of 9
EGDSLRYYYAN	VKNNRYM	SSRDSSGFQVF	5.00 3.02 nd	2 of 9 (3.04)
EGDSRRYYYAP	GKNNRPS	SSRDSSYFQVF	4.48 3.49 nd	2 of 9 (3.85)
EGDSERYYYAN	GKNNRCS	SSRDNSGFQVF	nd 5.41 nd	4 of 9 (4.35)
EGTSLRYYYAN	GYNNRPQ	SSRDSSGFQVF	3.03 3.50 3.18	5 of 9 (4.29)
EGDSLRTYYFN	GKCNRPS	SSRDSSGFQVF	nd 3.44 nd	2 of 9 (3.93)

Repeated from above, the 3 best binders with a signal in all replicates:

CDR-L1	CDR-L2	CDR-L3	log10 Kd, replicates	empty controls
EGDSLRYYQAN	GKNIRPS	SSRDSGGFQVF	1.25 1.17 0.48	2 of 9 (5.01)
EDDSLRYYYAN	GKNNRPS	NSRDSSGFQVN	1.58 2.02 1.10	2 of 9 (3.95)
EGDSLRYYYCN	GKNNRPS	MSRDSSGFQVF	1.80 1.74 1.38	4 of 9 (4.23)

Empty control strains, which show no peptide, gave a signal in 28% of pairings with library AAYL52; the median was 3.91 and 95% of these signals were weaker than 2.90. No background was subtracted. For each scFv, signals with the empty controls are counted beside the result, with their mean in brackets.